Target: α7 nACh receptor (UniProt P22770+P23979, M226I/T225I)
Test: Competition binding with [3H]epibatidine at α7 nACh receptors
Design: a chimaera of the chick α7 nACh extracellular domain fused to the 5-HT3 transmembrane/intracellular domains; expressed in transfected cells; host or cells: HEK293 cells, transient transfection (pcDNA3.1, PEI); species or system chick
Experimental: Human 5-HT3A subunit cDNA (Accession: P46098, kindly provided by J. […] Cells were transiently transfected with either of these cDNA constructs using polyethyleneimine (PEI: 25 kDa, linear, powder, Polysciences Inc., Eppelheim, Germany). 30 μl of PEI (1 mg ml^−1), 5 μg cDNA and 1 ml DMEM were incubated for 10 min at room temperature, added drop wise to a 90 mm plate of 70–80% conﬂuent HEK293 cells, and incubated for 2–3 days before use. […] Non-specific binding was determined with 30 μM (-)/-nicotine. Equilibrium reactions were incubated on ice for at least 1 h and bound radioligand measured using the same method as described above.

Amino acid sequences for entries named in this document (tags omitted). A change or cut given only in a name is not applied to a line headed by its entry. Chains listed by the source or under a name are the forms on record and can include a tag or linker.
UniProt P22770: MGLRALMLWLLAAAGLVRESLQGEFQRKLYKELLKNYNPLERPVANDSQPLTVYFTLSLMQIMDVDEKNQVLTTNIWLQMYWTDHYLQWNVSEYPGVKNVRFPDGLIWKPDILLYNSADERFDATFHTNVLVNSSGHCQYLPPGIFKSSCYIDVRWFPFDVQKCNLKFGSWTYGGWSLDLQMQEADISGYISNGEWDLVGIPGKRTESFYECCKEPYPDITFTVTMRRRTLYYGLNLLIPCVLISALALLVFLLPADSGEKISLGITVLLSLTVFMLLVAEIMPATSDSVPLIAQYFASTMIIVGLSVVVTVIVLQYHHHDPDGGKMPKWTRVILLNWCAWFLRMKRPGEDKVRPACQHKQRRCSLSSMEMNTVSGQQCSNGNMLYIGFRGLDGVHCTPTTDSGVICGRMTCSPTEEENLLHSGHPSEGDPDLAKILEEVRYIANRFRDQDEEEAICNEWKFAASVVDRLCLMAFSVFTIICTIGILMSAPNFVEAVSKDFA
α7 nACh receptor (UniProt P22770+P23979, M226I/T225I), UniProt P22770+P23979, fused P22770:T225I/P22770:M226I: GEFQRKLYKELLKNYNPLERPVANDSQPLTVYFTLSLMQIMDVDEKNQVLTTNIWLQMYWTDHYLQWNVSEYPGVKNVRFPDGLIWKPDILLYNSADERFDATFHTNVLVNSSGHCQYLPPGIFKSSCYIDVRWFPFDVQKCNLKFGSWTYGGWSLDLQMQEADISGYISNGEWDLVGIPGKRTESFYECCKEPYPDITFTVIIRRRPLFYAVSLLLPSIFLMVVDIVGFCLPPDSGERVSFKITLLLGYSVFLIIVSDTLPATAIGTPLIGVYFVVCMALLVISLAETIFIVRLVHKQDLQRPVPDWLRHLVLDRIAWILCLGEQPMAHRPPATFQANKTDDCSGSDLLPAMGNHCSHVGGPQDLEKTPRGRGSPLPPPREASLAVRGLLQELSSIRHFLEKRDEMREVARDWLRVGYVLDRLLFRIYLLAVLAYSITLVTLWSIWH
UniProt P23979: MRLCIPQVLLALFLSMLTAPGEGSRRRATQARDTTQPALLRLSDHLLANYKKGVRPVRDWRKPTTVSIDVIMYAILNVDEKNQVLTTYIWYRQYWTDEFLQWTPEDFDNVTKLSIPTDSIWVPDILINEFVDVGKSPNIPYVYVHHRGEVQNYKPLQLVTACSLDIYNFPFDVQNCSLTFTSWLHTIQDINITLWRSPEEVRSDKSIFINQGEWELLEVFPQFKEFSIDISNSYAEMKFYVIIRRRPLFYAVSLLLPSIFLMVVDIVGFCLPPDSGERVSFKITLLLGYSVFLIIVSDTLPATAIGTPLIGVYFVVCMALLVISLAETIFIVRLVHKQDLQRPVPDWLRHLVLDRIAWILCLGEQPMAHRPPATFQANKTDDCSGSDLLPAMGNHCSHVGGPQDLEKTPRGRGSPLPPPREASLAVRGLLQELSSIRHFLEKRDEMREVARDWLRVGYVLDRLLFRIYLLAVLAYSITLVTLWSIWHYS

CN1C2CCCC1CC(NC(=O)c1nn(C)c3ccccc13)C2 (centres unmarked) [granisetron, Granisetron]
competition (competition with [3H]epibatidine, concentration of up to 100 μM): not detected
binding (concentrations of up to 30 μM): no detectable binding

— paper PMC5464333, “The binding orientations of structurally-related ligands can differ; A cautionary note” (Neuropharmacology, 2017)
